This experiment concerns intracellular S. flexneri 5a M90T in TC7 cells. In kind it is cell-based, Shigella flexneri. The settings on record: S. flexneri MIC in TSB versus intracellular IC50.

As to `CO[C@@]12[C@H](COC(N)=O)C3=C(C(=O)C(C)=C(N)C3=O)N1C[C@@H]1N[C@@H]12` [Mitomycin C], the “MIC:IC50 ratio” value is > 2.

For the origin of these results see article PMC11992225, “Antibacterial compounds against non-growing and intracellular bacteria” (npj Antimicrobials and Resistance, 2025).
